# Measured values: patent publication US11162937B2, “Patient selection method for inflammation” (Purdue Research Foundation, priority 2013, dated 2021)
# Tested on: CIA mice
# Experiment: Collagen-induced arthritis (CIA) mice: ^99mTc-EC20 radioimaging, arthritis score and paw thickness under anti-inflammatory therapy
# Protocol: Collagen-induced arthritis (CIA) was initiated using established methods on 6-7 week old female DBA/1 mice (Jackson Laboratories) maintained on folate-deficient diet (Harlan-Teklad). Briefly, mice were immunized at the base of the tail with 100 μg bovine type II collagen emulsified in complete Freund's adjuvant (Chondrex, Inc., Redmond, Wash., USA). Mice were then boosted 21 days later with a similar injection of 100 μg bovine type II collagen emulsified in incomplete Freund's adjuvant. After four days, onset of arthritis was synchronized in all mice with an intraperitoneal injection of 25 μg lipopolysaccharide (LPS) dissolved in saline. Three days later mice were distributed equally across control and treatment groups (n=5). Healthy mice and disease control mice received daily intraperitoneal injections of 100 μL saline. […] Arthritis scores were assessed every other day by researchers blinded to the various treatment groups, using the following scoring system: 0=normal; 1=mild, but definite redness and swelling of the ankle or wrist, or apparent redness and swelling limited to individual digits, regardless of the number of affected digits; 2=moderate redness and swelling of ankle or wrist; 3=severe redness and swelling of the entire paw including digits; 4=maximally inflamed limb with involvement of multiple joints. A total score for each mouse was calculated by summing the scores for each of the four paws, allowing a maximum possible score of 16 per animal. Paw thickness was measured with calipers every other day starting on the first day of treatment. On day 3 of treatment, mice were anesthetized with isoflurane and imaged with ^99mTc-EC20 as described below. Mice were again imaged and then euthanized by CO2 asphyxiation on day 11 of treatment.
# ^99mTc-EC20 was prepared as previously described in C. P. Leamon, M. A. Parker, I. R. Vlahov, L. Xu, J. A. Reddy, M. Vetzel, N. Douglas, Synthesis and Biological Evaluation of EC20: A New Folate-Derived, ^99mTc-Based Radiopharmaceutical. Bioconjugate Chem. 13, 1200-1210 (2002), incorporated herein by reference. […]
substance,measurement,setting,value
abatacept: biologic therapy,"disease symptoms (arthritis score, paw swelling) relative to disease control",day 3 of therapy,no significant difference
same,uptake of ^99mTc-EC20 in the affected appendages relative to disease control,"day 3 of therapy, 150 μCi ^99mTc-EC20 i.p., imaged after 4 h",significantly less uptake
same,"disease symptoms / joint inflammation (arthritis score, paw thickness) relative to disease control",day 11 of therapy,significantly reduced inflammation
